Measured values reported in patent publication US7973012B2, “C-phenyl glycitol compound” (Taisho Pharmaceutical Co., Ltd, priority 2006, dated 2011).

The chains behind the UniProt entries cited, without tags or fusion partners.
UniProt P13866, whole entry: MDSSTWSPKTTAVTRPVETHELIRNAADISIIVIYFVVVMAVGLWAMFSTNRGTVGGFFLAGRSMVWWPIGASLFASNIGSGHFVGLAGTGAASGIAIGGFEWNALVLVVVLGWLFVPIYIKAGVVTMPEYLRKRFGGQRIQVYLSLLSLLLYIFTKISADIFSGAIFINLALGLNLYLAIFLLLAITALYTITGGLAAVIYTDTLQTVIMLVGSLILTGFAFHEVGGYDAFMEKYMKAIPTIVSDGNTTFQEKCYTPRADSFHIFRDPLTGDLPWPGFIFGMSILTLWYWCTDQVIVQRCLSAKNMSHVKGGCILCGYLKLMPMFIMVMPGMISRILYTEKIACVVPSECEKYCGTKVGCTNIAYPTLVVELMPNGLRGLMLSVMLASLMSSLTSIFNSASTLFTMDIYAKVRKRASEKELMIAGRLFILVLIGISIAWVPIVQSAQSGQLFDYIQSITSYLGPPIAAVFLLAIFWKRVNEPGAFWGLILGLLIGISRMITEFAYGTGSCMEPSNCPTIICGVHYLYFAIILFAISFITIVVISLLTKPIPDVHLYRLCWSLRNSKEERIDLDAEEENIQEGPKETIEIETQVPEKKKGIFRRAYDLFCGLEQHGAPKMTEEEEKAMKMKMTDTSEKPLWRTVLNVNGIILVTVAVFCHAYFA
UniProt P31639, whole entry: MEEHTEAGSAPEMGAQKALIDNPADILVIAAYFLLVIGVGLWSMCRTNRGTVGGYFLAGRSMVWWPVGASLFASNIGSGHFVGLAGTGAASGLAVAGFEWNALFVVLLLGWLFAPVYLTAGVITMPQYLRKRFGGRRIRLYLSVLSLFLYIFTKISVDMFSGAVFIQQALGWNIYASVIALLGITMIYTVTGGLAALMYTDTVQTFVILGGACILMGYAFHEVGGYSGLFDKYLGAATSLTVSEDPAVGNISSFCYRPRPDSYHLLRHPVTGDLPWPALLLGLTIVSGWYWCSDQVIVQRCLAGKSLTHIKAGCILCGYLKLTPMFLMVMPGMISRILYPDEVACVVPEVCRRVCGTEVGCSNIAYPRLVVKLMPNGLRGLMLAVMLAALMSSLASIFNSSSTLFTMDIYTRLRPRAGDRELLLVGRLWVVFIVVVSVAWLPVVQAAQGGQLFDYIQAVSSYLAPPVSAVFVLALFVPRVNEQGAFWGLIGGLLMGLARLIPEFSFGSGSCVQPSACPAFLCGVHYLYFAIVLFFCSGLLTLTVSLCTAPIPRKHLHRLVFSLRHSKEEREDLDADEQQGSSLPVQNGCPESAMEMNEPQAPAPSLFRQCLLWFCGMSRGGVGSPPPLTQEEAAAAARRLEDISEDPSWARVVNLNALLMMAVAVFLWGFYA

Key:
[1] = target: human SGLT1 (Homo sapiens, UniProt P13866); experiment: Inhibition test of sodium-dependent sugar uptake in CHO-k1 cells stably expressing human SGLT1; conditions: read-out: SGLT1 IC50, [14C]methyl α-D-glucopyranoside uptake, 37° C., 30 minutes
Description: (§1) An SGLT1 sequence (NM_000343) was reverse-transcripted from human small intestinal mRNA, then amplified, and then introduced into pCMV-tag5A from Stratagene Corporation. An SGLT2 sequence (NM_003041) was prepared from human nephric mRNA as with the above method, and then introduced into pcDNA3.1+hygro from Invitrogen Corporation. Each cloned sequence was confirmed to be identical with the reported sequence.
(§2) The human SGLT1 and human SGLT2 expression vectors were transfected into CHO-k1 cells by using Lipofectamine 2000 from Invitrogen Corporation. The SGLT expression cells were incubated in the presence of Geneticin (SGLT1) or Hygromycin B (SGLT2) at a 500 μg/mL concentration to select resistant strains, and specific activity of sugar uptake was obtained as an indicator by the following system.
(§3) Cells stably expressing human SGLT1 and human SGLT2 were used for the inhibition test of sodium-dependent glucose uptake.
(§4) The cells were incubated in a pretreatment buffer A (200 μL for SGLT1, and 2 mL for SGLT2) for 20 minutes. […] After a liquid scintilater was added thereto and mixed sufficiently, radioactivity was measured with microBETA (SGLT1) or a liquid scintillation counter from Beckman Coulter, Inc (SGLT2). […]

[2] = target: human SGLT2 (Homo sapiens, UniProt P31639); experiment: Inhibition test of sodium-dependent sugar uptake in CHO-k1 cells stably expressing human SGLT2; conditions: read-out: SGLT2 IC50, [14C]methyl α-D-glucopyranoside uptake, 37° C., an hour
Description: as §1, §2, §3, §4

- IC50 [1]: 382 nM
- IC50 [2]: 164 nM
Structure (SMILES): Cc1cc(O)c([C@@H]2O[C@H](CO)[C@@H](O)[C@H](O)[C@H]2O)cc1Cc1ccc(CNC(=O)NC(CO)(CO)CO)cc1
